Data reported in patent US8546320B2, “Hsp9O-targeted anti-cancer chimeric peptide” (Kyoto University, priority 2008, dated 2013).

Molecular target: T1, interaction between Hsp90 and the Hop's TPR2A domain (Homo sapiens, UniProt P07900)
T1 construct: histidine tag; made in house; host or cells: Hsp90: E. coli BL21 (pDEST17-Hsp90)
Experiment: BIACORE competition: Hsp90 pre-mixed with peptide, added to immobilized TPR2A
Format: binding
Source text: It was examined whether the TPR peptide designed could compete specifically with the interaction between Hsp90, which is essential for the accurate folding of some carcinogenic protein including survivin in cancer cells, and the Hop's TPR2A domain.

TPR mutant 1: TPR mutant 1 peptide without Antp, SEQ ID No. 70; sequence not printed in the text (KAYAAAGNSYTFK; TPR mutant 1)
Binding of Hsp90 (%) (peptide 1.411 μM): 97.75% | Binding of Hsp90 (%) (peptide 14.11 μM): 95.20% | Binding of Hsp90 (%) (peptide 141.1 μM): 92.84% | Binding of Hsp90 (%) (peptide 282.2 μM): 83.14% | Binding of Hsp90 (%) (peptide 705.5 μM): 71.08%
